Measurements: ChEMBL document CHEMBL5543164 (J Med Chem, 2024)
Calls of active or inactive are those of the source. The calls are words filed in the database; no cut-off is given here.

By UniProt entry, the sequences of proteins in these tests, tags left out. Where a name states a change or a piece, a line headed by the entry shows the natural chain unless it says otherwise.
UniProt O00750: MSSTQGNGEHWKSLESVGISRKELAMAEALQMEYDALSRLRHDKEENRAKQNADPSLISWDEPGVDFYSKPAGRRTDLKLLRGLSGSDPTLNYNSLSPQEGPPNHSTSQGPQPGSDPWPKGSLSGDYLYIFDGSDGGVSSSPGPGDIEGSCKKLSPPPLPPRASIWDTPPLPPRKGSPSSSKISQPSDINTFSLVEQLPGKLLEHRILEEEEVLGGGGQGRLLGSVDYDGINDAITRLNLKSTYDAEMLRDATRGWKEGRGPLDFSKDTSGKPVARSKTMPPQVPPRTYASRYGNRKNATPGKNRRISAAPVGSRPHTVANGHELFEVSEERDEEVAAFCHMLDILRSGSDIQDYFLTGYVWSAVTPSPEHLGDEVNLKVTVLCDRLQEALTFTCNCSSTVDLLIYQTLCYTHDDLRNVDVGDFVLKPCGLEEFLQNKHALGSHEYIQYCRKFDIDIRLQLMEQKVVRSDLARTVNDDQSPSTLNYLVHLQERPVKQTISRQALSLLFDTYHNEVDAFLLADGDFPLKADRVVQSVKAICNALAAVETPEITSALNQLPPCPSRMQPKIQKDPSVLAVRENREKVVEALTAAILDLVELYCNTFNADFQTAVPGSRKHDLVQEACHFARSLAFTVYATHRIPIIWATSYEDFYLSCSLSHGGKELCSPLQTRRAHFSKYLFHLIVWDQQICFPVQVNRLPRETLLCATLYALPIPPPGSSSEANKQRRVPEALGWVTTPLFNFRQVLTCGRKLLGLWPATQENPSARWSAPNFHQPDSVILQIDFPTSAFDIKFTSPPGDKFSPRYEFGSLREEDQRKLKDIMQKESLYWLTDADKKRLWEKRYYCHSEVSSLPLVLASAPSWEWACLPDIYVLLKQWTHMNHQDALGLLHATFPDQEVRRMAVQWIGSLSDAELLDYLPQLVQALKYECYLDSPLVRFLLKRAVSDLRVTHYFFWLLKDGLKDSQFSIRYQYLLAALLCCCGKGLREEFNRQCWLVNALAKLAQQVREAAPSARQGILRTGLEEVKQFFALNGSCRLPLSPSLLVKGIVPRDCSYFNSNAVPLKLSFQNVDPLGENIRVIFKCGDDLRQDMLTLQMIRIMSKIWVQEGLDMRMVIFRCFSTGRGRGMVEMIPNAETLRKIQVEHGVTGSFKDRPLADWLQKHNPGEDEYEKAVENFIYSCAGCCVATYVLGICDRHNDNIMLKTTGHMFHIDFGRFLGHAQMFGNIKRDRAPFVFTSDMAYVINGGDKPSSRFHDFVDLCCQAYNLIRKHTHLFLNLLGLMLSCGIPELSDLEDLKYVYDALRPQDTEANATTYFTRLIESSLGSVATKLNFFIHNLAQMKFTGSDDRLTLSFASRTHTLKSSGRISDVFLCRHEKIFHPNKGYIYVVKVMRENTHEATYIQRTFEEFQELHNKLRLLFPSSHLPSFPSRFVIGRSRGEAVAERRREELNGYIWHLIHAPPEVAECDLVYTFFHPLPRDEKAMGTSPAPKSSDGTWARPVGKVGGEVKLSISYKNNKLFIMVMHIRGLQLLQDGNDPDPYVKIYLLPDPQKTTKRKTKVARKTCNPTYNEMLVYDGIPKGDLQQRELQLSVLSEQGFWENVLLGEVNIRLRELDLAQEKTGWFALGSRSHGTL
UniProt Q6R327, whole entry, looked up: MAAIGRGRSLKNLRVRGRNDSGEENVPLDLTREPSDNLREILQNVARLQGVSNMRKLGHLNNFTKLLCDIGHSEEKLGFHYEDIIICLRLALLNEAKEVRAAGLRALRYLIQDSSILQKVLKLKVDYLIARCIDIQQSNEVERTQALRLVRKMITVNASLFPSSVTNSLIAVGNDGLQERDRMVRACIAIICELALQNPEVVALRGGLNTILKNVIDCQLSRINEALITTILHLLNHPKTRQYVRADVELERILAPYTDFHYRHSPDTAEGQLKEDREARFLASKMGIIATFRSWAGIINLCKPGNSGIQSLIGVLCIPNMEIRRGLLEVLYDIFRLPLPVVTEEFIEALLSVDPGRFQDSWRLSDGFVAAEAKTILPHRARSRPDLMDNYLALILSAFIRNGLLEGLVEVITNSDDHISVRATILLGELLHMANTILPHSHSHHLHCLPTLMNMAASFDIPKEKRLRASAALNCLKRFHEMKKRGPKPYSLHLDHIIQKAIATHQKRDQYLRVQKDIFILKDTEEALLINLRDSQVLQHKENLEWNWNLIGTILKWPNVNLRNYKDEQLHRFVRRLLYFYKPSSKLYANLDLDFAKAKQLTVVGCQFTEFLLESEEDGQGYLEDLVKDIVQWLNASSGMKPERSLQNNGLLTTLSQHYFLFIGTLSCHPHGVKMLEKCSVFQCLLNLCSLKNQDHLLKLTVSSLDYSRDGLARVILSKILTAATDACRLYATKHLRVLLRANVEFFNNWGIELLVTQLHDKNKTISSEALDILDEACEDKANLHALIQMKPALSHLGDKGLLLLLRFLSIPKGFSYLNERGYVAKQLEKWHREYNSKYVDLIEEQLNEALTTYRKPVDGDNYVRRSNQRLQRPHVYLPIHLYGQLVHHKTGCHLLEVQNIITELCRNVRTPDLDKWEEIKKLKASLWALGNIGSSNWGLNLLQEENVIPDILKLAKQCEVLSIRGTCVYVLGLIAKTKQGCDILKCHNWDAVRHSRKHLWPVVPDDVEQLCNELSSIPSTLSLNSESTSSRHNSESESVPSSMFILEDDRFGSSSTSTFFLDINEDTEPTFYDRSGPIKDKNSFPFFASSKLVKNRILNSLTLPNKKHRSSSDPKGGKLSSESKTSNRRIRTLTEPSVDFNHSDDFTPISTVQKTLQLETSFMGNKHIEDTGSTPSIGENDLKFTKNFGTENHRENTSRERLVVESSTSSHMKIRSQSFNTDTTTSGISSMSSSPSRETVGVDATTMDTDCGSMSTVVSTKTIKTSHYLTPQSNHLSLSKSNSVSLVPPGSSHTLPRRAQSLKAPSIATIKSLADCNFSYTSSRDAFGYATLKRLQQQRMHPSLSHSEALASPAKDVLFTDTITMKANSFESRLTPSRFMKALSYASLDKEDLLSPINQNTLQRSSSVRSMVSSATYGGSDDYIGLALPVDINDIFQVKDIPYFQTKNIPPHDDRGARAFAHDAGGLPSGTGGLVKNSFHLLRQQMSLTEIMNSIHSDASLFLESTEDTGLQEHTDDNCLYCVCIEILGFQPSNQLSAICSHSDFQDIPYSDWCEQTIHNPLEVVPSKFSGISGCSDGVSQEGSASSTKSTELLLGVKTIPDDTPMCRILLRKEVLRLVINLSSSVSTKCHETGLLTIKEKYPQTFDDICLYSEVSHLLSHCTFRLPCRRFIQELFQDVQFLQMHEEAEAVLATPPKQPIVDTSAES
UniProt Q9BVC4, whole entry, looked up: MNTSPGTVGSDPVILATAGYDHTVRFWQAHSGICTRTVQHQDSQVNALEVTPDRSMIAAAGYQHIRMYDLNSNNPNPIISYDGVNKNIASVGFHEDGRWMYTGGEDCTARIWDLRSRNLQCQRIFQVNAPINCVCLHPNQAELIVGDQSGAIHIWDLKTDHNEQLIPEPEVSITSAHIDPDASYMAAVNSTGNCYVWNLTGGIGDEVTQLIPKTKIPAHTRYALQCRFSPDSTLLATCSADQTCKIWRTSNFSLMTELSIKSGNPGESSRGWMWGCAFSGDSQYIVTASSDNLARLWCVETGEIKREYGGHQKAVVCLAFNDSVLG
UniProt Q9BPZ7, whole entry, looked up: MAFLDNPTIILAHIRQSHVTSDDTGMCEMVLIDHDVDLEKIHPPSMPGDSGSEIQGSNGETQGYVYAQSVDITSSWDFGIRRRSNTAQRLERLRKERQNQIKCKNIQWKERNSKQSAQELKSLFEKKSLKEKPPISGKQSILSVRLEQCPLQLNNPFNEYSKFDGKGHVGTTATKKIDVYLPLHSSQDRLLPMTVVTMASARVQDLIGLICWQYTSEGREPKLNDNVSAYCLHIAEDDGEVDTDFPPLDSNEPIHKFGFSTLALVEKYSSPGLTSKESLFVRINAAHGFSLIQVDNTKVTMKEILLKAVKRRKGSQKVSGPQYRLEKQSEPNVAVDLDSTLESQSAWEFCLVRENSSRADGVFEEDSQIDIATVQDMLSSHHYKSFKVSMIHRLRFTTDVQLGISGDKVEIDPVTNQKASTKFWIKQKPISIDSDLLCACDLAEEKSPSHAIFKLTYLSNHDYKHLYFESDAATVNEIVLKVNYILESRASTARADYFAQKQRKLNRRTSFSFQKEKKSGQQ
UniProt P23443: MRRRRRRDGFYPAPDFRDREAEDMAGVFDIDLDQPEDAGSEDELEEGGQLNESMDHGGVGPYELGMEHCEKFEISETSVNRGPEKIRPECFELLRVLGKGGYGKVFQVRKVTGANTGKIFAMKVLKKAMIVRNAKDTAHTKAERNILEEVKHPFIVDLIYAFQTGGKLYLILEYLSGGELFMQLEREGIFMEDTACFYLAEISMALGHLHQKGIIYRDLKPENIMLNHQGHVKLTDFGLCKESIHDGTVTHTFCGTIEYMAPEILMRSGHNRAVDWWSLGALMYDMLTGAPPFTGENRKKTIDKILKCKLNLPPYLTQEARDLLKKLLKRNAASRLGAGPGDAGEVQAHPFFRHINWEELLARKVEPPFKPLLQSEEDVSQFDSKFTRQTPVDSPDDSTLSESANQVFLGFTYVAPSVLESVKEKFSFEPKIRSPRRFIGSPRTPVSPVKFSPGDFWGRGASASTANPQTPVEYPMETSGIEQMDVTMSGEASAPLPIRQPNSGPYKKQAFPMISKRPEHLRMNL
UniProt Q8N122, whole entry, looked up: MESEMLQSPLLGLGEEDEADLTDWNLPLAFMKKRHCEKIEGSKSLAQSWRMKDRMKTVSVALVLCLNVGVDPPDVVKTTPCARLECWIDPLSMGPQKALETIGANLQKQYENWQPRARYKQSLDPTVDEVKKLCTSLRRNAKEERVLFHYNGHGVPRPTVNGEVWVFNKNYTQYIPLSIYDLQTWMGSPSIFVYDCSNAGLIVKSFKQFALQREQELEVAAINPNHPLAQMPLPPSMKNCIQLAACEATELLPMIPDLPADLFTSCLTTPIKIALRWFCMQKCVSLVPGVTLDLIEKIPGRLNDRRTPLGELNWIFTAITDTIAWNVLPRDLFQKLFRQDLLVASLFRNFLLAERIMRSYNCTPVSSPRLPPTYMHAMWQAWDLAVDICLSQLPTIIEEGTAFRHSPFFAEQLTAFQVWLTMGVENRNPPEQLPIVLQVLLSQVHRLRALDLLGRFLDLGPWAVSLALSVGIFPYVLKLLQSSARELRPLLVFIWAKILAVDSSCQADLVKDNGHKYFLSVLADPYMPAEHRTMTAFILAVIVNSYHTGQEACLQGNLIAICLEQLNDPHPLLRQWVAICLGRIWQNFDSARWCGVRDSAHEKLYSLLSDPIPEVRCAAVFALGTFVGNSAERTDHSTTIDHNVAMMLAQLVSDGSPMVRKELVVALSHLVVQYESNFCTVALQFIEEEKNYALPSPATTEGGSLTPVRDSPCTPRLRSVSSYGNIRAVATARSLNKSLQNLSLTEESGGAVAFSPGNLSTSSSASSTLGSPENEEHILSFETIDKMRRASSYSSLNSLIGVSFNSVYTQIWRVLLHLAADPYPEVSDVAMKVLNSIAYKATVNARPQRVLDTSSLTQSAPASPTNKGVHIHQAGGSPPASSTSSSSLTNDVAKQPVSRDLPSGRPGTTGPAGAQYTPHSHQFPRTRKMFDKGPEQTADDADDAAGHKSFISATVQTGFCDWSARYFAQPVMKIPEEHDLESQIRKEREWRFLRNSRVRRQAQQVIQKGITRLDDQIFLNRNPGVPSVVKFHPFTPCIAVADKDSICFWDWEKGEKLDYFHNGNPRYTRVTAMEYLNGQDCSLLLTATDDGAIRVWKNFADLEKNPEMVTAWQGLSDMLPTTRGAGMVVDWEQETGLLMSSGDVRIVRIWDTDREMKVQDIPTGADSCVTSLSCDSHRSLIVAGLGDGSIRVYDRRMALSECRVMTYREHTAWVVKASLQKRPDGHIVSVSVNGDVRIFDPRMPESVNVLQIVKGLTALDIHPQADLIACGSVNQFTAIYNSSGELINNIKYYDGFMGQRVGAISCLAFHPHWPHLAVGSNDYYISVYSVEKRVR
UniProt Q13541: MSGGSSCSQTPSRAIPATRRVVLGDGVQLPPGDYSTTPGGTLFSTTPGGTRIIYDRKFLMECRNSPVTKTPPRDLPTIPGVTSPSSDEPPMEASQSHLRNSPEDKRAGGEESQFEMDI

Assays:
[1] = molecular target: Phosphatidylinositol 4-phosphate 3-kinase C2 domain-containing subunit beta (Homo sapiens) (UniProt O00750); assay: Binding affinity to PIK3C2B (unknown origin)
[2] = molecular target: T1, Phosphatidylinositol 4,5-bisphosphate 3-kinase catalytic subunit delta isoform (Homo sapiens) (UniProt O00329); assay: Binding affinity to PIK3CD (unknown origin)
T1 sequence (whole entry): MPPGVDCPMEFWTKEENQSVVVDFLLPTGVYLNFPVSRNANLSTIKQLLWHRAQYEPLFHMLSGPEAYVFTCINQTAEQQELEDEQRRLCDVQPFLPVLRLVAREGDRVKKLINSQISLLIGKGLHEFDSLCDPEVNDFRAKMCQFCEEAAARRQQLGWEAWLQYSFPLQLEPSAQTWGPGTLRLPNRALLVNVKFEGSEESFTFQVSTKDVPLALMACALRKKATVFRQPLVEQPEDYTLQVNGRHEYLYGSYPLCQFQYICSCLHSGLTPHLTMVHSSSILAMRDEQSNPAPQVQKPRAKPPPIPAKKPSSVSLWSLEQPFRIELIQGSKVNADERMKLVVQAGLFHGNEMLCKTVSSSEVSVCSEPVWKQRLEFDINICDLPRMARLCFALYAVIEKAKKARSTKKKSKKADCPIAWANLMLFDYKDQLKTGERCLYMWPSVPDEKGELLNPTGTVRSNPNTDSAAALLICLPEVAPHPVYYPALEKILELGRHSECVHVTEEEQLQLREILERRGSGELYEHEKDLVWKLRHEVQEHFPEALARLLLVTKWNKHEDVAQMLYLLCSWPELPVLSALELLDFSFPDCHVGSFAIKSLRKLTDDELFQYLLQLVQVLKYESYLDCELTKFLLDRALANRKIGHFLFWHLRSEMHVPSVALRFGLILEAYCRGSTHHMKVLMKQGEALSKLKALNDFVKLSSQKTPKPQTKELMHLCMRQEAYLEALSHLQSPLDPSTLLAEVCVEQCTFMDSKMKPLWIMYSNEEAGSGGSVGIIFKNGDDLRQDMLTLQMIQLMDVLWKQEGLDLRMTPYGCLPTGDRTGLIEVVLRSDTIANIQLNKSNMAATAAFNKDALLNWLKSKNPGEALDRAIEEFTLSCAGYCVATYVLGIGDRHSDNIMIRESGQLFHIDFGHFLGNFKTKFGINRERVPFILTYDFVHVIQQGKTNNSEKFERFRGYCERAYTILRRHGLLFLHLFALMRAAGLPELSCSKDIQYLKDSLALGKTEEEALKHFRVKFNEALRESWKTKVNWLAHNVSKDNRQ

mTORC2 (Homo sapiens) = mTORC2 (Homo sapiens) (UniProt P42345+Q6R327+Q9BVC4+Q9BPZ7); assay: Inhibition of mTORC2 (unknown origin) by Lance ultra assay; assay type: protein-complex assay
[3] = molecular target: Ribosomal protein S6 kinase beta-1 (Homo sapiens) (UniProt P23443); assay: Inhibition of 70S6K phosphorylation at Thr-389 residue in human MCF7 cells at 1 to 10 uM incubated for 24 hrs by Western blotting analysis; assay type: cell-based; details: dose 1-10 µM
[4] = molecular target: Phosphatidylinositol 4,5-bisphosphate 3-kinase catalytic subunit gamma isoform (Homo sapiens, UniProt P48736); assay: Binding affinity to PIK3CG (unknown origin)
[5] = molecular target: RAC-alpha serine/threonine-protein kinase (Homo sapiens) (UniProt P31749); assay: Inhibition of AKT phosphorylation at S473 residue in human MCF7 cells at 1 to 10 uM incubated for 24 hrs by Western blot analysis; assay type: cell-based; details: dose 1-10 µM
mTORC1 (Homo sapiens) = mTORC1 (Homo sapiens) (UniProt P42345+Q8N122+Q9BVC4); assay: Inhibition of mTORC1 (unknown origin) by Lance ultra assay; assay type: protein-complex assay
[6] = molecular target: Eukaryotic translation initiation factor 4E-binding protein 1 (Homo sapiens) (UniProt Q13541); assay: Inhibition of 4EBP1 phosphorylation at T37146 residue in human MCF7 cells at 1 to 10 uM incubated for 24 hrs by Western blot analysis; assay type: cell-based; details: dose 1-10 µM

Row | Compound | Activity [1] | Activity [2] | inhibition (mTORC2 (Homo sapiens)) | inhibition [3] | Activity [4] | inhibition [5] | inhibition (mTORC1 (Homo sapiens)) | inhibition [6]
1 | O=C(Nc1ccc(-c2nc(N3C4CCC3COC4)nc(N3C4CCC3COC4)n2)cc1)Nc1ccc2c(c1)COC2=O | inactive | inactive | Active | Active | inactive | Active | Active | Active
2 | CN(C)C1CCN(C(=O)c2ccc(NC(=O)Nc3ccc(-c4nc(N5CCOCC5)nc(N5CCOCC5)n4)cc3)cc2)CC1 [GEDATOLISIB] |  |  |  | Active |  | Active |  | Active
